Measurements reported in US5880095A, “Cholesteryl ester transfer protein inhibitor peptides and prophylactic and therapeutic anti-arteriosclerosis agents” (LG Chemical Ltd., priority 1994, dated 1999).

Target: T1, pure CETP separated from human blood plasma (Homo sapiens, UniProt P11597)
T1 construct: Pure CETP was separated from human blood plasma in accordance with the method of Hesler et al; from tissue; host or cells: human blood plasma
T1 sequence (P11597 18-493): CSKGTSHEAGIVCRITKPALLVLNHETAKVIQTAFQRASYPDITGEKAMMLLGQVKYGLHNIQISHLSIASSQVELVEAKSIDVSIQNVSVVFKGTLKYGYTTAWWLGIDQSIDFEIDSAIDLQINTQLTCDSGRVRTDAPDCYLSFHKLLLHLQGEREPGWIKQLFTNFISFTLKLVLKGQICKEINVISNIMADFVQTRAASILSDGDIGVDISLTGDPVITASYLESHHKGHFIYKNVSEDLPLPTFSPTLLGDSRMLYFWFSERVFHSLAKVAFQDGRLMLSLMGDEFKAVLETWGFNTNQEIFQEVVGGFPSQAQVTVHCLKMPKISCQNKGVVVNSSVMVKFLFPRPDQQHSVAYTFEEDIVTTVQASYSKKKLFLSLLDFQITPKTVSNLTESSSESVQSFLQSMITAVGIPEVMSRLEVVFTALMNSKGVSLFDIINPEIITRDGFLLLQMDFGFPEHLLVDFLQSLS
Assay: Determination of CETP inhibitory activity (CE transfer from [3H]-HDL to LDL), pure CETP as CETP source
Format: biochemical
Details: control experiment
Description: LDL and [^3 H]-cholesteryl oleate-labelled HDL were synthesized in accordance with the method of Morton et al.(see, J. Biol. Chem., 256, 11992-11995(1981)) and then separated using an ultracentrifuge(Beckman XL 70). LDL and [^3 H]-HDL, thus prepared, were used as a CE-receptor and a CE-donor, respectively.
Pure CETP was separated from human blood plasma in accordance with the method of Hesler et al.(see, J. Biol. Chem., 262, 2275-2282(1987)) and used as a CETP source.
0.3 ml of LDL, 0.05 ml of [^3 H]-HDL and 0.05 ml of the CETP source, which were prepared above, and 0.05 ml of a CETP inhibitor were added into a 1.5 ml tube and reacted at 37° C. for 3 hours.
When the reaction was finished, LDL was precipitated in accordance with the method of Morton et al.(see, Biochim. Biophys. Acta, 663, 350-355(1981)). The amount of the isotope transferred to LDL was determined with a liquid scintillation counter(Packard Tricarb 1600 TR) using a part of the supernatant, and the activity of CETP was calculated therefrom.
The inhibitory activity of the CETP inhibitor was calculated from the CETP activities of the experimental group, in which the CETP inhibitor was added, and that of control group, in which no CETP inhibitor was added, as follows: [formula]

CETP inhibitory activity (FIG. 4, curve C): hardly exhibits CETP inhibitory activity
Substance: human albumin [reference compound]
